Laboratory results reported in ChEMBL document CHEMBL4145686, “Discovery of a Potent and Selective Steroidal Glucocorticoid Receptor Antagonist (ORIC-101)” (J Med Chem, 2018).

Species: Homo sapiens
Assay: Selectivity index, ratio of IC50 for antagonist activity at human PR expressed in CHO-K1 cells to IC50 for antagonist activity at human GR expressed in CHO-K1 cells a
Type: cell-based

Molecule `CC(C)N(C)c1ccc([C@H]2C[C@@]3(C)[C@@H](CC[C@@]3(O)C#CC(C)(C)C)[C@@H]3CCC4=CC(=O)CC[C@@H]4[C@H]32)cc1` has a Ratio IC50 of 3.8.
